These results are taken from PubChem BioAssay AID504577 (NMMLSC, 2011).

This is a selection; strong and weak results do not stand in their true shares. The source made the active and inactive calls. Rule as the data show it: active = response mostly above about 7.3% (no sharp cut-off); inactive = mostly below about 5.4%.

A short description of the test: regulators of yeast V-ATPase proton pumping, primary screen, pHLuorin cytosolic pH fluorescence (AID 504577). Also: actives read high. The conditions noted are these: S. cerevisiae, at 10 µM, hits give high values.
On to `COc1ccccc1CNC(=O)COC(=O)C(O)(c1ccccc1)c1ccccc1`, for which the response was inactive: 2.97%.
To `CC1(CBr)Cn2c(nc3ccccc3c2=O)S1` (stereo not drawn) belongs inactive: -2.05%; to `CC(C)/C=N\N=C(\N)N[N+](=O)[O-]`, inactive: -1.57%; to `CN(C(=O)Cc1ccc(Cl)c(Cl)c1)[C@@H]1CCCC[C@H]1N1CCCC1`, inactive: -8.73%.
For the molecule `CCOP(=O)(Nc1ccc(C)cn1)OCC`, the response is inactive: 1.61%.
To `O=P1(Nc2ccccn2)COc2ccccc2OC1` belongs inactive: -3.93%; to `CCC1=CC2Cc3nc4ccc(Cl)cc4c(N)c3C(C1)C2` (stereo not drawn), inactive: -0.14%; to `CCOP(=O)(NC(=NC(C)c1ccccc1)NC(C)c1ccccc1)OCC` (stereo not drawn), inactive: -6.24%.
Take `O=P1(N(CCCl)CCCl)NCCC(C(F)(F)F)O1` (stereo not drawn): the response is inactive: 2.06%.
In the case of `Clc1n[nH]nc1-c1nn[nH][15n]1` it was inactive: 4.14%; in that of `CC(C)(C)C(=O)NC(Sc1ncccn1)C(Cl)(Cl)Cl` (stereo not drawn), inactive: -2.35%; in that of `O=P1(Nc2ncccn2)COc2ccccc2OC1`, inactive: -0.42%.
To `Cc1ccc(OCC(=O)OC2CN3CCC2CC3)cc1` (stereo not drawn) belongs inactive: -3.37%.
For the molecule `O=[As](O)(c1cccs1)c1cccs1`, the response is inactive: -0.19%.
In the case of `O=P1(Nc2ccc(Br)cn2)COc2ccccc2OC1` it was inactive: -0.33%.
In the case of `NS(=O)(=O)c1cccc(NC(=O)COC(=O)C(O)(c2ccccc2)c2ccccc2)c1` it was inactive: -0.67%; in that of `Nc1cccc([As](=O)(O)c2ccccc2)c1`, inactive: -4.12%; in that of `Cc1nn(-c2ccccc2)c2c1P(=O)(N1CCOCC1)N(C)C(c1ccccc1)=N2` (stereo not drawn), inactive: -0.99%.
`CC1CCC(C(C)C)C(OP(=O)(Nc2ccccn2)c2ccccc2)C1` (stereo not drawn): the response is inactive: 5.45%.
Regarding `Cc1ccc(C(=O)OC2CN3CCC2CC3)cc1` (stereo not drawn), the response was inactive: 1.15%.
To `O=C(/C=C/c1ccccc1)OC1CN2CCC1CC2` (stereo not drawn) belongs inactive: -1.39%.
In the case of `CCCC1OP(=O)(Nc2ccccc2)OCC1CC` (stereo not drawn) it was inactive: -0.81%.
`CN(C)C1(CNC(=O)c2ccc(S(C)(=O)=O)cc2)CCCCC1`: the response was inactive: 6.48%.
As to `NC(=O)Nc1ccc([As](=O)(O)O)cc1`, the response is inactive: 5.09%.
As to `O=[N+]([O-])c1ccc2c(c1)nnn2O`, the response was inactive: -2.71%.
In the case of `CN(C)C(=O)c1cc([N+](=O)[O-])cc2c1-c1c(cc([N+](=O)[O-])cc1[N+](=O)[O-])C2=O` it was inactive: 3.42%.
As for `CN(C(=O)Cc1ccc(Cl)c(Cl)c1)[C@H]1CC[C@@]2(CCCO2)C[C@@H]1N1CCCC1`, the response was inactive: -0.62%.
In the case of `N#CCCN(C(=O)COC(=O)C(O)(c1ccccc1)c1ccccc1)c1ccc(F)cc1` it was inactive: 0.57%.
